The values that follow come from ChEMBL document CHEMBL1145378 (J Med Chem, 2007).

Amino acid sequences for entries named in this document (tags omitted). A change or cut given only in a name is not applied to a line headed by its entry.
UniProt Q12809: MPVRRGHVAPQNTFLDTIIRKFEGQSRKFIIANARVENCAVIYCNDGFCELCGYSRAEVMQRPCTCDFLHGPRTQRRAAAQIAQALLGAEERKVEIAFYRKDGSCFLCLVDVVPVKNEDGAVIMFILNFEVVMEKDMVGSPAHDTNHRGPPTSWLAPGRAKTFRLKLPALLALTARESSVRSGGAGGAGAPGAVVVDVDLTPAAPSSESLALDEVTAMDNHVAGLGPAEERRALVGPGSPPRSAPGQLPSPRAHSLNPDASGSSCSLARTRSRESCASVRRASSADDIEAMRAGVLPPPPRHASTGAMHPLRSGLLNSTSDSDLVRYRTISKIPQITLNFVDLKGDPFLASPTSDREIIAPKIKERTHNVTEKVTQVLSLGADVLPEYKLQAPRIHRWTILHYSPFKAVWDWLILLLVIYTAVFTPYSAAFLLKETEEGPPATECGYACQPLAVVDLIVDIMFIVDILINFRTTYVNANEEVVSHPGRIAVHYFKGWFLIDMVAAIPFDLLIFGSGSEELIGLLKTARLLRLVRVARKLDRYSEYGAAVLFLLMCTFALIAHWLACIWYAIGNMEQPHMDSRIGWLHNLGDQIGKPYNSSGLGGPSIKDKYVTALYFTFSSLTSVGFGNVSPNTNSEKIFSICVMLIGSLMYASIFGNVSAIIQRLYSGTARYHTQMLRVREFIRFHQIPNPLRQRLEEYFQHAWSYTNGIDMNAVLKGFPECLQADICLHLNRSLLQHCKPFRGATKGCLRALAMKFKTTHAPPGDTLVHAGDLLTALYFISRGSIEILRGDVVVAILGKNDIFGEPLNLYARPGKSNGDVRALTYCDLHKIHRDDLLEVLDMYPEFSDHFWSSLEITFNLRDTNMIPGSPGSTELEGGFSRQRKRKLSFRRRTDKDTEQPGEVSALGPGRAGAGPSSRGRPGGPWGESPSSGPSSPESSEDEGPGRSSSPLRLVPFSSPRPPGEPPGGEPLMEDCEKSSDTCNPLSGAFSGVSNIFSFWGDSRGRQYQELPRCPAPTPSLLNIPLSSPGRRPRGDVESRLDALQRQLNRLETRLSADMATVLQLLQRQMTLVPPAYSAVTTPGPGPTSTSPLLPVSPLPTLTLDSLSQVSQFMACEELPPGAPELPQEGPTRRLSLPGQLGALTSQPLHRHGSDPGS

For series [1], the target named is T1, Voltage-gated inwardly rectifying potassium channel KCNH2 (Homo sapiens, UniProt Q12809).
Series [2] has as its target T1, Voltage-gated inwardly rectifying potassium channel KCNH2. This is another data set of the same source.
Series [3] deals with hERG (KCNH2) (Homo sapiens, UniProt Q12809). The series can be described thus: in vitro. The note with it: hek293.

Usually Ki stands for the dissociation constant of the complex between target and ligand, obtained from inhibition or displacement. As for `CC(C)COCC(CN(Cc1ccccc1)c1ccccc1)N1CCCC1` (stereo not drawn) [BEPRIDIL], the Ki came out at 291 nM in series [1] and 184 nM in series [2]. For the same molecule, the selectivity ratio in series [3] is 1.6.
